Data set [1] relates to A. baumannii AB5075. To be noted: media supplemented with […] ace-K.

As to `CC1=CC(=O)[N-]S(=O)(=O)O1.[K+]` [ace-K, potassium salt of 6-methyl-1,2,3-oxathiazine-4 (3H)-one 2,2-dioxide], the “ADI equivalent for a person weighing 75 kg” value is given as “about 1000 mg”. Moreover, the transformation efficiency result in data set [1] is recorded as “significant reduction”.

Source of the values: patent publication US20260076974A1, “COMPOSITIONS FOR PREVENTING AND TREATING INFECTION COMPRISING AN ARTIFICIAL SWEETENER” (Brunel University London, priority 2022, published 2026).
